Measured values taken from patent US10442819B2, “Tricyclic compounds as inhibitors of mutant IDH enzymes” (Merck Sharp & Dohme Corp., priority 2014, dated 2019).

The chains behind the UniProt entries cited, without tags or fusion partners.
UniProt O75874, whole entry R132H: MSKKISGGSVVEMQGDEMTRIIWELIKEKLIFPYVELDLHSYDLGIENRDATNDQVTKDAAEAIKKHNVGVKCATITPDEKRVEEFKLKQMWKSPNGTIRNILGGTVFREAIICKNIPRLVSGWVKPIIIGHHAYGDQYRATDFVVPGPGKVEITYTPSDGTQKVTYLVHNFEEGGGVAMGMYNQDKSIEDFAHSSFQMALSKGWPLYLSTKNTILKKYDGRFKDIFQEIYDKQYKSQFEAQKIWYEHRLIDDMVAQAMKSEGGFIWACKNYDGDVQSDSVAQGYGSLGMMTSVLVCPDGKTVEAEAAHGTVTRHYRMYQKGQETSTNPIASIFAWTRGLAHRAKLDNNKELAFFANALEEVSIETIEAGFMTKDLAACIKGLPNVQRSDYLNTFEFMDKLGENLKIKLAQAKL

Target: R132H mutant IDH1 enzyme (Homo sapiens (Human), UniProt O75874, R132H)
Experiment: R132H IDH1 Enzymatic Assay
Type: biochemical
Details: R132H mutant IDH1 enzyme 1.5 nM final; luminescence readout; read-out: IC50

Structure (SMILES)	IC50 [nM]
CC(C)O[C@H]1CC[C@H](C(=O)N2Cc3cccnc3Nc3ccc(C4OCCOC4C)cc32)OC1 (stereo partly drawn) [Example 33, ((2R,5S)-5-isopropoxytetrahydro-2H-pyran-2-yl)(8-(3-methyl-1,4-dioxan-2-yl)-5,11-dihydro-6H-benzo[b]pyrido[2,3-e][1,4]diazepin-6-yl)methanone]	46
C[C@H]1CC[C@H](C(=O)N2Cc3cccnc3Nc3ccccc32)CC1 [Example 58, 6-[(trans-4-methylcyclohexyl)carbon-yl]-6,11-dihydro-5H-pyrido[2,3-b][1,5]benzodiazepine]	458
C[C@H](N[C@H]1CC[C@H](C(=O)N2Cc3cccnc3Nc3ccc([C@H]4CCCOC4)cc32)CC1)C(F)(F)F (single isomer, unassigned) [Example 462]	43
CO[C@@H](C(C)C)[C@H]1CC[C@@H](C(=O)N2Cc3cccnc3Nc3ccc(N4CCOCC4)cc32)CC1 [Example 116, 6-({cis-4-[(1S)-1-methoxy-2-methylpropyl]cyclohexyl}-carbonyl)-8-morpholin-4-yl-6,11-dihydro-5H-pyrido[2,3-b][1,5]benzodiazepine]	155
C[C@H](N[C@H]1CC[C@H](C(=O)N2Cc3cccnc3Nc3ccc(N4CCOCC4)cc32)CC1)C(F)(F)F [Example 439, trans-4-[(8-morpholin-4-yl-5,11-dihydro-6H-pyrido[2,3-b][1,5]benzodiazepin-6-yl)carbonyl]-N-[(1S)-2,2,2-trifluoro-1-methylethyl]cyclohexanamine]	237
CC(C)O[C@H]1CC[C@H](C(=O)N2Cc3cccnc3Nc3ccc(N4CC5CC(C4)O5)cc32)CC1 [Example 298, 6-{[trans-4-(1-methylethoxy)cyclohexyl]car-bonyl}-8-(6-oxa-3-azabicyclo[3.1.1]hept-3-yl)-6,11-dihydro-5H-pyrido[2,3-b][1,5]benzodiazepine]	54
CO[C@H]1CC[C@@H](C(=O)N2Cc3cccnc3Nc3ccc(C(=O)N4CCCC4)cc32)CC1 [Example 4, 6-[(Cis-4-methoxycyclohexyl)carbonyl]-8-(pyrrolidin-1-ylcarbonyl)-6,11-dihydro-5H-pyrido[2,3-b][1,5]benzodiazepine]	152
C=CC1CCC(C(=O)N2Cc3cccnc3Nc3ccc(N4CCOCC4)cc32)CC1 (centres unmarked) [Example 127, 6-[(4-ethenylcyclohexyl)carbon-yl]-8-morpholin-4-yl-6,11-dihydro-5H-pyrido[2,3-b][1,5]benzodiazepine]	40
O=C([C@H]1CC[C@H](OC2CC2)CC1)N1Cc2cccnc2Nc2ccc(N3CCOCC3)cc21 [Example 90, 6-{[trans-4-(cyclopropyloxy)cyclo-hexyl]carbonyl}-8-morpholin-4-yl-6,11-dihydro-5H-pyrido[2,3-b][1,5]benzodiazepine]	104
CO[C@H]1CC[C@H](C(=O)N2Cc3cccnc3Nc3ccc(-c4cncn4C)cc32)CC1 [Example 187, 6-[(trans-4-methoxycyclohexyl)carbonyl]-8-(1-methyl-1H-imidazol-5-yl)-6,11-dihydro-5H-pyrido[2,3-b][1,5]benzodiazepine]	203
COC1CCC(C(=O)N2Cc3cccnc3Nc3ccc(N4CCC(OC)C(F)C4)cc32)CC1 (centres unmarked) [Example 297, 8-(3-fluoro-4-methoxypiperidin-1-yl)-6-[(4-methoxycyclohexyl)carbonyl]-6,11-dihydro-5H-pyrido[2,3-b][1,5]benzodiazepine]	564
CC(C)O[C@H]1CC[C@H](C(=O)N2Cc3cccnc3Nc3ccc(N4CC5(COC5)C4)cc32)CC1 [Example 220, 6-{[trans-4-(1-methylethoxy)cyclohexyl]car-bonyl}-8-(2-oxa-6-azaspiro[3.3]hept-6-yl)-6,11-dihydro-5H-pyrido[2,3-b][1,5]benzodiazepine]	165
CC(C)[C@@H](N[C@H]1CC[C@@H](C(=O)N2Cc3cccnc3Nc3ccc(N4CCOCC4)cc32)CC1)C(F)(F)F [Example 457, cis-N-[(1R)-2-methyl-1-(trifluoromethyl)propyl]-4-[(8-morpholin-4-yl-5,11-dihydro-6H-pyrido[2,3-b][1,5]benzodiazepin-6-yl)carbonyl]cyclohexanamine]	90
CC(C)O[C@@H]1CC[C@H](C(=O)N2Cc3cccnc3Nc3ccc(N4CCOCC4)cc32)C1 [Example 66, 6-{[(1S,3R)-3-(1-methylethoxy)cyclopent-yl]carbonyl}-8-morpholin-4-yl-6,11-dihydro-5H-pyrido[2,3-b][1,5]benzodiazepine]	113
C[C@H](N[C@H]1CC[C@@H](C(=O)N2Cc3cccnc3Nc3ccc(N4CCOCC4)cc32)CC1)C(F)(F)F [Example 440, cis-4-[(8-morpholin-4-yl-5,11-dihydro-6H-pyrido[2,3-b][1,5]benzodiazepin-6-yl)carbonyl]-N-[(1S)-2,2,2-trifluoro-1-methylethyl]cyclohexanamine]	920
COC1CCC(C(=O)N2Cc3cccnc3Nc3ccc(CCC(=O)O)cc32)CC1 (centres unmarked) [Example 423, 3-{6-[(4-methoxycyclohexyl)carbonyl]-6,11-dihydro-5H-pyrido[2,3-b][1,5]benzodiazepin-8-yl}propanoic acid]	385
CO[C@H]1CC[C@H](C(=O)N2Cc3cccnc3Nc3ccc(C4=CCC(C#N)CC4)cc32)CC1 (stereo partly drawn) [Example 358, 4-{6-[(trans-4-methoxycyclohexyl)carbonyl]-6,11-dihydro-5H-pyrido[2,3-b][1,5]benzodiazepin-8-yl}cyclohex-3-ene-1-carbonitrile]	44
CC(N1CCC(C(=O)N2Cc3cccnc3Nc3ccc(N4CCOCC4)cc32)CC1)C(F)(F)F (centres unmarked) [Example 153, 8-morpholin-4-yl-6-{[1-(2,2,2-trifluoro-1-methylethyl)piperidin-4-yl]carbonyl}-6,11-dihydro-5H-pyrido[2,3-b][1,5]benzodiazepine]	65
O=C([C@H]1CC[C@@H](OC2CCC2)CC1)N1Cc2cccnc2Nc2ccc(N3CCOCC3)cc21 [Example 96, 6-{[cis-4-(cyclobutyloxy)cyclohex-yl]carbonyl}-8-morpholin-4-yl-6,11-dihydro-5H-pyrido[2,3-b][1,5]benzodiazepine]	111

Next, values leading:

IC50 [nM]	Structure (SMILES)
321	COC1CN(c2ccc3c(c2)N(C(=O)[C@H]2CC[C@H](OC)CC2)Cc2cccnc2N3)CCC1(F)F (stereo partly drawn) [Example 213, 8-(4,4-difluoro-3-methoxypiperidin-1-yl)-6-[(trans-4-methoxycyclohexyl)carbonyl]-6,11-dihydro-5H-pyrido[2,3-b][1,5]benzodiazepine]
77	COCC(OC)c1ccc2c(c1)N(C(=O)[C@H]1CC[C@H](OC(C)C)CO1)Cc1cccnc1N2 (single isomer, unassigned) [Example 21]
620	CO[C@@H]1CC[C@H](C(=O)N2Cc3cccnc3Nc3ccc(N4CCOCC4)cc32)C[C@@H]1C(F)(F)F [Example 101, 6-{[(1S,3S,4R)-4-methoxy-3-(trifluoromethyl)cyclohex-yl]carbonyl}-8-morpholin-4-yl-6,11-dihydro-5H-pyrido[2,3-b][1,5]benzodiazepine]
123	CO[C@H]1CC[C@H](C(=O)N2Cc3cccnc3Nc3ccc(-c4ccnc(N(C)C)c4)cc32)CC1 [Example 407]
555	CO[C@H]1CC[C@H](C(=O)N2Cc3cccnc3Nc3ccc(N4CC(C(F)F)C4)cc32)CC1 [Example 417, 8-[3-(difluoromethyl)azetidin-1-yl]-6-[(trans-4-methoxycyclohexyl)carbonyl]-6,11-dihydro-5H-pyrido[2,3-b][1,5]benzodiazepine]
198	COC1CN(c2ccc3c(c2)N(C(=O)[C@H]2CC[C@H](OC)CC2)Cc2cccnc2N3)CC1F (stereo partly drawn) [Example 218, 8-(3-fluoro-4-methoxypyrrolidin-1-yl)-6-[(trans-4-methoxycyclohexyl)carbonyl]-6,11-dihydro-5H-pyrido[2,3-b][1,5]benzodiazepine]
194	C[C@H]1CC(F)(F)CC[C@@H]1C(=O)N1Cc2cccnc2Nc2ccc(N3CCC(F)(F)CC3)cc21 [Example 195, 6-{[(1S,2S)-4,4-difluoro-2-methylcyclohexyl]carbonyl}-8-(4,4-difluoropiperidin-1-yl)-6,11-dihydro-5H-pyrido[2,3-b][1,5]benzodiazepine]
6	CC(C)O[C@H]1CC[C@H](C(=O)N2Cc3cccnc3Nc3ccc([C@@H]4CCO[C@H]4C)cc32)OC1 (mixture of isomers) [Example 529, ((2R,5S)-5-isopropoxytetrahydro-2H-pyran-2-yl)(8-((2S,3S and 2R,3R)-2-methyltetrahydrofuran-3-yl)-5H-benzo[b]pyrido[2,3-e][1,4]diazepin-6(11H)-yl)methanone]
282	CO[C@H]1CC[C@H](C(=O)N2Cc3cccnc3Nc3ccc(N4CCOCC4)cc32)C[C@H]1C [Example 92, 6-{[(1S,3R,4S)-4-methoxy-3-methylcyclohexyl]carbon-yl}-8-morpholin-4-yl-6,11-dihydro-5H-pyrido[2,3-b][1,5]benzodiazepine]
26	CON=C1CCC(C(=O)N2Cc3cccnc3Nc3ccc(C4=CCOCC4)cc32)CC1 (centres unmarked) [Example 392, 4-{[8-(3,6-dihydro-2H-pyran-4-yl)-5,11-dihydro-6H-pyrido[2,3-b][1,5]benzodiazepin-6-yl]carbonyl}cyclohexanone O-methyloxime]
125	CC(C)C1CC(C(=O)N2Cc3cccnc3Nc3ccc(N4CCOCC4)cc32)C1 (centres unmarked) [Example 150, 6-{[3-(1-methylethyl)cyclobutyl]-carbonyl}-8-morpholin-4-yl-6,11-dihydro-5H-pyrido[2,3-b][1,5]benzodiazepine]
14	COC1CCC(C(=O)N2Cc3cccnc3Nc3ccc(CC4CCOCC4)cc32)CC1 (centres unmarked) [Example 429, 6-[(4-methoxycyclohexyl)carbonyl]-8-(tetrahydro-2H-pyran-4-ylmethyl)-6,11-dihydro-5H-pyrido[2,3-b][1,5]benzodiazepine]
13	CC(C)O[C@H]1CC[C@H](C(=O)N2Cc3cccnc3Nc3ccc(C(C)OCCOC4CCC4)cc32)CC1 (stereo partly drawn) [Example 541, (8-{1-[2-(Cyclobutyloxy)ethoxy]ethyl}-5,11-dihydro-6H-pyrido[2,3-b][1,5]benzodiazepin-6-yl)[trans-4-(propan-2-yloxy)cyclohexyl]methanone]
